Target: central benzodiazepine receptors
Assay: inhibition of specific binding of [3H] flunitrazepam to central benzodiazepine receptors, rat brain
Conditions: 4° C., pH 7.4
Text: A study has also been made of their in vitro affinity for central benzodiazepine receptors and for those of the peripheral type according to the methods described in what follows: the IC50 in vitro has been determined, i.e. the concentration in the medium of the studied product which inhibits 50% of the binding to the benzodiazepine receptors of a binder known to be specific for these receptors.
(b) determination of the concentration of the product under study inhibiting 50% of the specific binding of flunitrazepam to the central receptors.
The brains of rats were removed after decapitation and ground, then placed in suspension in an aqueous solution of sucrose (0.32M). The mixture is centrifuged and the pellet is resuspended to give a homogenous suspension in a TRIS-HCl buffered solution (50 mM; pH=7.4). Aliquots of this suspension are incubated at 4° C. after addition of [^3 H] flunitrazepam, alone or with increasing amounts of the compound to be tested. The amount of labelled product bound to the membranes after the latter have been separated from the incubation medium by binding to glass fiber filters is determined by means of liquid scintillation counting and the IC50 is calculated by means of the logit-log method; non-specificbinding of flunitrazepam is determined by introducing 2 μM of clonazepam.

CCC(C)N(C)C(=O)c1cc2ccccc2c(-c2ccccc2Cl)n1 (stereo not shown) [PK11195, 1-(2-chlorophenyl) 3-(N-methyl N-methylpropyl) carbamoyl isoquinoline, reference compound]
IC50: 21.4 µM

Source: patent US5026711A, “4-amino quinolines and naphthyridines and their use as medicines” (priority 1988, dated 1991)
